Measured values reported in PMC2629123, “Trypanosoma cruzi CYP51 Inhibitor Derived from a Mycobacterium tuberculosis Screen Hit” (PLoS Neglected Tropical Diseases, 2009).

Chains of the proteins cited; added tags and fusions are not shown.
UniProt Q385E8, whole entry L2A: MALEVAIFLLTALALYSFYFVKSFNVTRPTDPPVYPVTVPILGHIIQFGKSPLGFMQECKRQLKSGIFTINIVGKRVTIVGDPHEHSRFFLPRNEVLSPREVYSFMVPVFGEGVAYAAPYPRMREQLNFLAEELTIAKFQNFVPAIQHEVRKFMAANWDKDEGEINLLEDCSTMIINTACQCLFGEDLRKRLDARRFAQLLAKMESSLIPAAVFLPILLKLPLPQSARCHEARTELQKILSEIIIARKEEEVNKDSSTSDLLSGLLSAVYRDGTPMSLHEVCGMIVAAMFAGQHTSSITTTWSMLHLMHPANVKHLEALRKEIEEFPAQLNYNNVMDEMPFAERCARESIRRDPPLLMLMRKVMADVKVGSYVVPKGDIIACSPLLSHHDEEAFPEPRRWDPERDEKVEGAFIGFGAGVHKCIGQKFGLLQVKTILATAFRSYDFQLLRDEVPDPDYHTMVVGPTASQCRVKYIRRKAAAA

Target: T1, CYP51Tb (Trypanosoma brucei brucei, UniProt Q385E8, L2A)
T1 construct: His8 (C); made in house; host or cells: E. coli HMS174(DE3) co-transformed with pGro7 (GroES/GroEL)
Assay: biochemical
Type: binding
Conditions: spectral titration, room temperature, pH 7.5

`OC(Cn1cncn1)(Cn1cncn1)c1ccc(F)cc1F` [Fluconazole, reference compound] was tested, and the Kd was 0.034 ± 0.014 µM.
